Measurements: patent publication US11672774B2, “Methods of treating squamous cell carcinomas with farnesyltransferase inhibitors” (Kura Oncology, Inc., priority 2019, dated 2023)

Key:
Type in all cases: in vivo, BALB/c nude or Nu/nu mice
HNSCC PDX Model HN2576 = experiment: tumor growth in HNSCC PDX model HN2576; conditions: PDX HN2576, wild type H-Ras, H-Ras 3.0x median, H/K+N 4.6; tipifarnib 80 mg/kg PO BID, cisplatin 3 mg/kg IP QW, palbociclib 35 mg/kg PO QD, cetuximab 1 mg/mouse IP QW; vs vehicle
Method: (§1) Female BALB/c nude or Nu/nu mice (6-8 weeks) were inoculated subcutaneously on the right flank with primary human tumor model fragment (2-3 mm in diameter) for tumor development. When average tumor size reaches about 250-350 mm^3, mice were randomly grouped into dosing groups. Animals were dosed with tipifarnib vehicle (20% w/v Hydroxypropyl-β-cyclodextrin) or tipifarnib at a dose of 80 mg/kg BID PO for 3-4 weeks and tumor dimensions were measured twice per week.
(§2) The ability of tipifarnib to inhibit tumor growth was determined using selected patient-derived xenograft (PDX) models of HNSCC. The selected models expressed different levels of H-Ras or had different high ratios of H-Ras expression to the combined expression of K-Ras and N-Ras (“H/K+N ratio”). The expression levels of H-Ras, K-Ras and N-Ras in these PDX models were determined by RNAseq.
(§3) After tumor development, mice were administered either vehicle, tipifarnib (80 mg/kg PO BID), a second active agent, or a combination of tipifarnib and a second active agent.
(§4) After tumor development, mice were administered either vehicle, tipifarnib (at a reduced dosing of 60 mg/kg PO BID), a second active agent, or a combination of tipifarnib and a second active agent.

HNSCC PDX Model HN2594 = experiment: tumor growth in HNSCC PDX model HN2594; conditions: PDX HN2594, wild type H-Ras, H-Ras 2.8x median, H/K+N 3.6; tipifarnib 80 mg/kg PO BID, cisplatin 3 mg/kg IP QW, palbociclib 35 mg/kg PO QD, cetuximab 1 mg/mouse IP QW; vs vehicle
Method: as §1, §2
(§5) After tumor development, mice were administered either vehicle, tipifarnib, a second active agent, or a combination of tipifarnib and a second active agent.
as §3, §4

HNSCC PDX Model HN3679 = experiment: tumor growth in HNSCC PDX model HN3679; conditions: PDX HN3679, H-Ras 2.6x median, H/K+N 3.6; tipifarnib 80 mg/kg PO BID, palbociclib 35 mg/kg PO QD, cetuximab 1 mg/mouse IP QW; vs vehicle
Method: as §1
The ability of tipifarnib to inhibit tumor growth was determined using selected patient-derived xenograft (PDX) models of HNSCC. The selected models expressed different levels of H-Ras or had different high ratios of H-Ras expression to the combined expression of K-Ras and N-Ras (“H/K+N ratio”). The expression levels of H-Ras, K-Ras and N-Ras in these PDX models were determined by RNAseq. All models in Table 1 express wild type H-Ras.
As described in Example I, mice were inoculated subcutaneously on the flank with PDX HNSCC models HN3792, HN0586, HN2576, HN3067, HN2594, HN3461, HN3776, HN3474, and HN3679, with each of the nine models having high H-Ras expression level and/or high H/N+K Ratios, as detailed in Table 1). After tumor development, mice were administered either vehicle, tipifarnib (80 mg/kg PO BID), a second active agent, or a combination of tipifarnib and a second active agent.

HNSCC PDX Model HN3411 = experiment: tumor growth in HNSCC PDX model HN3411; conditions: PDX HN3411, H-Ras 4.1x median, H/K+N 2.7; Example III: tipifarnib, cetuximab, cisplatin or palbociclib alone or combined; vs vehicle
Method: as §1, §5
(§6) After tumor development, mice were administered either vehicle, tipifarnib (at a reduced dosing of 60 mg/kg PO BID), a second active agent, or a combination of tipifarnib and a second active agent. The second agent was PI3K-α inhibitor BYL719 (50 mg/kg PO QD).

HNSCC PDX Model HN3067 = experiment: tumor growth in HNSCC PDX model HN3067; conditions: PDX HN3067, H-Ras 2.7x median, H/K+N 2.8; tipifarnib 80 mg/kg PO BID, cisplatin 3 mg/kg IP QW, palbociclib 35 mg/kg PO QD, cetuximab 1 mg/mouse IP QW; vs vehicle
Method: as §1, §3, §6

For cetuximab, the tumor growth (HNSCC PDX Model HN2576) was “high activity”, the tumor growth (HNSCC PDX Model HN2594) was “partial response (inhibited tumor growth); also recorded: had activity” and the tumor growth (HNSCC PDX Model HN3679) was “high activity”. For the same substance, the tumor growth (HNSCC PDX Model HN3411) was “partially inhibited tumor growth” and the tumor growth (HNSCC PDX Model HN3067) was “high activity”.

Entries after “also recorded” stand apart in the source; their conditions may differ.
